Source: PMC7865483, “Regulation of the CoA Biosynthetic Complex Assembly in Mammalian Cells” (International Journal of Molecular Sciences, 2021)

Chains of the proteins cited; added tags and fusions are not shown. Lines headed by an entry give the natural chain unless they say otherwise; changes in a name come on top.
UniProt Q8TE04: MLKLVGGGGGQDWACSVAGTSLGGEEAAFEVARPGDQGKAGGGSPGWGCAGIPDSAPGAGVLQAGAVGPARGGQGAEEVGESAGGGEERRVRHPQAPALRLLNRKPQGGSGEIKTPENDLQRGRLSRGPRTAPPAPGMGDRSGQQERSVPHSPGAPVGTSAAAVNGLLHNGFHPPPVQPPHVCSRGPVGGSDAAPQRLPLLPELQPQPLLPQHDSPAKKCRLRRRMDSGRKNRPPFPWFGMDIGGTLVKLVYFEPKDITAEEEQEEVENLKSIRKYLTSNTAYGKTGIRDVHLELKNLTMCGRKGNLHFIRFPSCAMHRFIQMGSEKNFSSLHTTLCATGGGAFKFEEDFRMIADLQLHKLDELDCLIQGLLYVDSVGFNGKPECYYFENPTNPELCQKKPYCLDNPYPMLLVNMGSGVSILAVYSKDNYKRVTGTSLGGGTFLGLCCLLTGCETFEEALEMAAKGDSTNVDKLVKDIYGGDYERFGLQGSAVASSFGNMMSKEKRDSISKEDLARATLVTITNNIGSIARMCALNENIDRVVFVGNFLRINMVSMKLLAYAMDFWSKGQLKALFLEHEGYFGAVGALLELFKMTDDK

Molecular target: T1, Pank1 (pantothenate kinase 1), endogenous in A549 cells (human (endogenous in A549), UniProt Q8TE04 1-598)
T1 construct: pantothenate kinase 1, endogenous in the human lung cancer cell line A549; source: endogenous, A549 cells (fixed cells for PLA)
Experiment: proximity ligation; in situ PLA (Duolink) on fixed A549 cells, endogenous proteins; cells serum-starved for 24 h, or serum-starved and then treated with 500 μM H2O2
Details: partners not purified

B1: 4′-phosphopantothenoylcysteine decarboxylase (PPCDC) (enzyme, human (endogenous in HEK293 and A549), UniProt Q96CD2 1-204, looked up)
chain: MEPKASCPAAAPLMERKFHVLVGVTGSVAALKLPLLVSKLLDIPGLEVAVVTTERAKHFYSPQDIPVTLYSDADEWEIWKSRSDPVLHIDLRRWADLLLVAPLDANTLGKVASGICDNLLTCVMRAWDRSKPLLFCPAMNTAMWEHPITAQQVDQLKAFGYVEIPCVAKKLVCGDEGLGAMAEVGTIVDKVKEVLFQHSGFQQS
fold increase of the PLA signal after stress treatments, against control conditions: ~10 fold
